Measurements published in US7989632B2, “Crystalline forms of solvated ilaprazole” (Il Yang Pharmaceutical Company, Ltd., priority 2006, dated 2011).

Test: Dynamic Vapor Sorption/Desorption (DVS) isotherm
Type: physicochemical
Experimental: Dynamic Vapor Sorption/Desorption (DVS): Data were collected on a VTI SGA-100 moisture balance system. For sorption isotherms, a sorption range of 5 to 95% relative humidity (RH) and a desorption range of 95 to 5% RH in 10% RH increments were used for analysis. The samples were not dried prior to analysis. Equilibrium criteria used for analysis were less than 0.0100% weight change in 5 minutes with a maximum equilibration time of 3 hours if the weight criterion was not met. Data were not corrected for the initial moisture content of the samples.

Substance: crystalline methanol/racemic ilaprazole solvate [Form G]
- DVS weight loss at 5% RH (at 5% RH, samples not dried prior to analysis): ~4.6%
- DVS weight loss from 95 to 5% RH (desorption, 95 to 5% RH): ~3.9%
- DVS weight gain from 5 to 95% RH (sorption, 5 to 95% RH): ~3.9%
